Measured values reported in patent US7550425B2, “Diuretic peptide conjugates” (Zealand Pharma A/S, priority 2000, dated 2009).

Legend:
[1] = test system: conscious Sprague Dawley rats; format: in vivo, rat; conditions: i.v. bolus 30 nmol/kg
Experimental: In the conscious rat model, the animal is chronically instrumented with catheters in the urinary bladder, the femoral artery, and the femoral vein. The animal receives a continuous i.v. infusion with isotonic saline, 50 μl/min. Urine is collected in vials in consequtive urine collection periods of 10 min each. After two control periods, the test compound is administered and fractionated urine collections (10 min periods) are continued for at least two hours. Urinary concentrations of sodium and potassium are determined by flame photometry (Instrumentation Laboratory 943) using caesium as internal standard.
The diuretic effect of the peptide conjugates of the invention has been tested in conscious rats, where Compound 1 elicits a powerful and sustained diuretic response. […] The results are shown in FIGS. 2 to 8 wherein HR is heart rate, MAP is mean arterial pressure, V is urine flow rate, UNaV is urinary excretion rate of sodium, RSNA is renal sympathetic nerve activity expressed as % of the control level, Cosm is the osmolar clearance, and CH2O is free water clearance. […]
One hour prior to the start of each experiment a food pellet (standard rodent chow) was placed within access to the rat though a hole in the rat holder. The number and time of feeding responses (i.e., times in which the rat began to eat the food pellet) was recorded before, and after drug administration. […]

[2] = In vitro stability in heparinised human plasma; format: in vitro ADME
Experimental: In addition, the degradation of Compound 1 of the invention has been studied in heparinised human plama.
The stability of peptides is analysed in human plasma. The peptides are incubated at 37° C. in plasma and samples taken at approx. 8 regular intervals between t=0 and t=390 min for Compound 1 and nociceptin-NH2, and at 9 intervals between t=0 and t=32 min for Compound CE1 are analysed by HPLC. […] This is done by subsequent injections of the drug, plasma, and a co-injection with the drug and the plasma, followed by optimisation of the LC method parameters until a satisfactory separation is obtained. Three parallel experiments are performed for each plasma type. 100 μl of peptide is mixed with 900 μl plasma at t=0 and incubated at 37° C. (drug-plasma mixture conc. 0.1 mg/ml). Samples of 100 μl of the drug-plasma mixture are removed at appropriate intervals and the degradation stopped by precipitation of the sample with 10 μl MeCN:TFA 50:50 v/v. A control plasma sample without the drug treated in the same manner is also taken. […] The resulting supernatant solution is transferred to 300 μl HP autosamler vials and analyzed by HPLC. […]
The samples are analysed in the following order: blank, the peptide at 0.1 mg/mL, the plasma without the peptide, the three parallel samples for t=0, the three parallel samples for t=5 min. the three parallel samples for t=60 min. etc. […]

Compound: CC(C)C[C@H](NC(=O)[C@H](CCCCN)NC(=O)[C@H](CCCNC(=N)N)NC(=O)[C@H](C)NC(=O)[C@H](CO)NC(=O)[C@H](CCCCN)NC(=O)[C@H](CCCNC(=N)N)NC(=O)[C@H](C)NC(=O)CNC(=O)[C@@H](NC(=O)[C@H](Cc1ccccc1)NC(=O)CNC(=O)CNC(=O)[C@@H](N)Cc1ccccc1)[C@@H](C)O)C(=O)N[C@@H](C)C(=O)N[C@@H](CC(N)=O)C(=O)N[C@@H](CCC(N)=O)C(N)=O [nociceptin-NH2]
- heart rate, arterial pressure and RSNA [1]: rapid bradycardia, a hypotensive response and initial RSNA suppression
- half-life ([2]; 37° C., mean (n=3) +/− deviation, read-out: T1/2 in min (degradation in human heparinised plasma)): 1.62 h
- half-life ([2]; heparinised human plasma, read-out: half life in plasma (converted)): ~1.5 h

Like-named read-outs stand apart in the source and are kept apart here.
